# Data: BindingDB's records for doi:10.1021/acs.jmedchem.5b00801 (Duquesne University, 2015)
# What was measured:
# [1] = Binding affinity to human FRbeta expressed in Chinese hamster D4 cells assessed as cell growth inhibition after 96 hrs by CellTiter-Blue assay
# [2] = Binding affinity to human FRalpha expressed in Chinese hamster RT16 cells assessed as cell growth inhibition after 96 hrs by CellTiter-Blue assay
# [3] = Binding affinity to human FRbeta expressed in Chinese hamster D4 cells assessed as cell growth inhibition after 96 hrs by CellTiter-Blue assay in presence of 200 nM folic acid
Compound,pIC50 [1],pIC50 [2],pIC50 [3]
Nc1nc(N)c2c(CCCc3csc(C(=O)N[C@@H](CCC(=O)O)C(=O)O)c3)coc2n1,7.74,6.81,< 6.00
Nc1nc(N)c2c(CCCc3cc(C(=O)N[C@@H](CCC(=O)O)C(=O)O)cs3)coc2n1,,6.83,

# pIC50: −log10 of the molar value.
